Target: T1, Tof1ΔC-Csm3 (Tof1ΔC 1-937 aa) (Saccharomyces cerevisiae, UniProt P53840 1-937; Q04659 1-317)
T1 sequence (looked up) 1: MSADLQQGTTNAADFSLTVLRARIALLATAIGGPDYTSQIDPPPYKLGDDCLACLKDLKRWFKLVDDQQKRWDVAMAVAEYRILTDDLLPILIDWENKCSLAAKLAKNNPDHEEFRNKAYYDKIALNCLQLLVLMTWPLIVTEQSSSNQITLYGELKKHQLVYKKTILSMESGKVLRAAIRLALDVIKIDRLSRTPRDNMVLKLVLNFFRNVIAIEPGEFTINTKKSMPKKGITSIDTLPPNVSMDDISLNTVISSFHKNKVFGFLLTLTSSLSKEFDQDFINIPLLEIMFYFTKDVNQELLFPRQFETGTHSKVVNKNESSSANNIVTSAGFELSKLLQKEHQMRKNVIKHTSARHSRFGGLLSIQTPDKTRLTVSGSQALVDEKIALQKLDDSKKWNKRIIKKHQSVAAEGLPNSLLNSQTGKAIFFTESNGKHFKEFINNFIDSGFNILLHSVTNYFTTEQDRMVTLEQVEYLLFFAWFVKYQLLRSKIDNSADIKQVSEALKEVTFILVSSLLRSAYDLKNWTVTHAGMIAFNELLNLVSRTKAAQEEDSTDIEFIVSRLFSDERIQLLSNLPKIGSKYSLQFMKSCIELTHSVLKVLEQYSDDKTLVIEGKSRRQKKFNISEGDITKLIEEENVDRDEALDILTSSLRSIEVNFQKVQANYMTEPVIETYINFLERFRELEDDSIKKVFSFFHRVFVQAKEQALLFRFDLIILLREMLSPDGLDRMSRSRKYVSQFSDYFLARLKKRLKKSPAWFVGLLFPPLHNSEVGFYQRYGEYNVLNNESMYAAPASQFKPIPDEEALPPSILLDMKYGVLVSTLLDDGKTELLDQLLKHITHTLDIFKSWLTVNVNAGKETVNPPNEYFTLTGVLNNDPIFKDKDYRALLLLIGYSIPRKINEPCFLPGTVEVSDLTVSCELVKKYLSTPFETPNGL
T1 sequence (looked up) 2: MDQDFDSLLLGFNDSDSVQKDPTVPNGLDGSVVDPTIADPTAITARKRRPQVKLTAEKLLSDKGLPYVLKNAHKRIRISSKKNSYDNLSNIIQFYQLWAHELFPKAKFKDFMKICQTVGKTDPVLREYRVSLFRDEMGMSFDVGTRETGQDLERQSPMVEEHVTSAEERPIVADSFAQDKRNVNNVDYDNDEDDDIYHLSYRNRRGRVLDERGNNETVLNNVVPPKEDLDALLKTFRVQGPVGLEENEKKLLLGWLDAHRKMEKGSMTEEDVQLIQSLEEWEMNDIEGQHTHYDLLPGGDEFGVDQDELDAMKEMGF
Experiment: cell-based or functional assay

B1: full-length (fl) FACT (Spt16-Pob3) (complex, Saccharomyces cerevisiae)
chain 1: MEELNIDFDVFKKRIELLYSKYNEFEGSPNSLLFVLGSSNAENPYQKTTILHNWLLSYEFPATLIALVPGKVIIITSSAKAKHLQKAIDLFKDPESKITLELWQRNNKEPELNKKLFDDVIALINSAGKTVGIPEKDSYQGKFMTEWNPVWEAAVKENEFNVIDISLGLSKVWEVKDVNEQAFLSVSSKGSDKFMDLLSNEMVRAVDEELKITNAKLSDKIENKIDDVKFLKQLSPDLSALCPPNYKFNFDLLDWTYSPIIQSGKKFDLRVSARSTNDQLYGNGCILASCGIRYNNYCSNITRTFLIDPSEEMANNYDFLLTLQKEIVTNILKPGRTPKEVYESVIEYIEKTKPELVPNFTKNIGSLIGLEFRDSNFILNVKNDYRKIQRGDCFNISFGFNNLKDSQSANNYALQLADTVQIPLDETEPPRFLTNYTKAKSQISFYFNNEEEDNNKKKSSPATKVPSKPDRNSKILRTKLRGEARGGAEDAQKEQIRKENQKKLHEKLEKNGLLRFSAADANGPDSEPRQYFKKYESYVRDSQLPTNIRDLRIHVDWKSQTIILPIYGRPVPFHINSYKNGSKNEEGEYTYLRLNFNSPGSSGGISKKVEELPYEESADNQFVRSITLRSKDGDRMSETFKQIADLKKEATKREQERKALADVVQQDKLIENKTGRTKRLDQIFVRPNPDTKRVPSTVFIHENGIRFQSPLRTDSRIDILFSNIKNLIFQSCKGELIVVIHIHLKNPILMGKKKIQDVQFYREASDMSVDETGGGRRGQSRFRRYGDEDELEQEQEERRKRAALDKEFKYFADAIAEASNGLLTVENTFRDLGFQGVPNRSAVFCMPTTDCLVQLIEPPFLVINLEEVEICILERVQFGLKNFDMVFVYKDFNKPVTHINTVPIESLDFLKQWLTDMDIPYTVSTINLNWATIMKSLQDDPYQFFLDGGWNFLATGSDDEASDESEEEVSEYEASEDDVSDESAFSEDEEGSEVDDDISGDESEDYTGDESEEGEDWDELEKKAARADRGANFRD
chain 2: MSTDFDRIYLNQSKFSGRFRIADSGLGWKISTSGGSAANQARKPFLLPATELSTVQWSRGCRGYDLKINTKNQGVIQLDGFSQDDYNLIKNDFHRRFNIQVEQREHSLRGWNWGKTDLARNEMVFALNGKPTFEIPYARINNTNLTSKNEVGIEFNIQDEEYQPAGDELVEMRFYIPGVIQTNVDENMTKKEESSNEVVPKKEDGAEGEDVQMAVEEKSMAEAFYEELKEKADIGEVAGDAIVSFQDVFFTTPRGRYDIDIYKNSIRLRGKTYEYKLQHRQIQRIVSLPKADDIHHLLVLAIEPPLRQGQTTYPFLVLQFQKDEETEVQLNLEDEDYEENYKDKLKKQYDAKTHIVLSHVLKGLTDRRVIVPGEYKSKYDQCAVSCSFKANEGYLYPLDNAFFFLTKPTLYIPFSDVSMVNISRAGQTSTSSRTFDLEVVLRSNRGSTTFANISKEEQQLLEQFLKSKNLRVKNEDREVQERLQTALGSDSDEEDINMGSAGEDDESVDEDFQVSSDNDADEVAEEFDSDAALSDAEGGSDEERPSKKPKVE
- decrease in in vitro chromatin replication (leading-strand length), 50 nM FACT with 20 nM Tof1ΔC-Csm3 against fl Tof1-Csm3; recovered by 8-fold excess of FACT: 66%

Source: PMC8860610, “The fork protection complex recruits FACT to reorganize nucleosomes during replication” (Nucleic Acids Research, 2022)
